Experimental data: PubChem BioAssay AID1194 (EPA DSSTox, 2008)
Calls of active or inactive are those of the source.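 Rule for the calls: active = chemicals rated mutagenic or weakly mutagenic in the Salmonella bacterial test by one literature review, or positive overall by another; inconclusive = no clear call, values can overlap the other calls; inactive = the rest.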

Tested on: Salmonella typhimurium Ames mutagenicity, literature compiled
Assay: DSSTox (CPDBAS) Carcinogenic Potency Database Salmonella Mutagenicity
Excerpt: The Carcinogenic Potency Database (CPDB) is a unique and widely used international resource of the results of over 6500 chronic, long-term animal cancer tests on over 1500 chemical substances. The CPDB provides easy access to the bioassay literature, with qualitative and quantitative analyses of both positive and negative experiments that have been published over the past 50 years in the general literature and by the National Cancer Institute/National Toxicology Program. The CPDB standardizes the diverse literature of cancer bioassays that vary widely in protocol, histopathological examination and nomenclature, and in the published author's choices of what information to provide in their papers. Results are reported in the CPDB for tests in rats, mice, hamsters, dogs, and nonhuman primates, and are based on the most positive result among all experiments for each sex-species. The DSSTox CPDBAS (all species) file incorporates data from the CPDB Summary Tables for the full list of over 1500 chemical substances tested in at least one species.
A chemical is classified within the CPDB as mutagenic, i.e. "active", in the Salmonella assay if it was evaluated overall as either "mutagenic" or "weakly mutagenic" by Zeiger [Zeiger, E. (1997) Genotoxicity Database. In: Gold and Zeiger, Eds. Handbook of Carcinogenic Potency and Genotoxicity Databases. Boca Raton, FL: CRC Press, pp. 687-729. http://potency.berkeley.edu/CRCbook.html] or as overall "positive" by the EPA Gene-Tox Program [Kier et al. (1986) Mutat. Res. 168: 69-240].

| SMILES | outcome |
| --- | --- |
| O=C1C2CC=CCC2C(=O)N1SC(Cl)(Cl)C(Cl)Cl (stereo not given) | inactive; active |
| NC(=O)Nc1ccc([As](=O)(O)O)cc1 | inactive; active |
| C1CN1 | active; inactive |
| CN(N=O)C(=N)N[N+](=O)[O-] | active |
| COP(=O)(OC)N1CCOCC1 | inactive; active |
